Where “and” joins values, the source holds several entries; their conditions need not be identical. Identical values can stand only once.

What all share (type): in vivo
Assay [1] has as its system MAO-B. Description: MAO-B inhibition in rat brain nucleus free homogenate after s.c. Deprenyl or UG85 plaster. The following applies: 14C-PEA, Deprenyl 1 mg/kg s.c. As to the method: (§1) Because of the low dose-demand (5-10 mg/day) of the active ingredient we could not determine the blood-level directly, therefore we determined it partly indirectly by a biochemical method determining the monoamine-oxidase (MAO) inhibiting effect of the active ingredient in the brain and liver tissues, and partly from the quantity of the unabsorbed active ingredient from the plaster by HPLC.
(§2) The aim of these studies was to determine absorption parameters of the transdermal preparations of different composition. As a model, rats and beagle clogs depilated on the required surface were used. The absorption kinetic was followed by determining the quantity of the unabsorbed active ingredient (HPLC). Besides we measured the monoamine oxidase (MAO) inhibiting effect of the absorbed active ingredient in rat brain and liver tissues.
(§3) Test methods: MAO activity of rat brain and liver tissues was determined by the radiometric method of Wurtman and Axelrod (Biochem. Pharmacol. 1963. 12, 1417). The remaining active ingredient content of the plasters removed from the test animals was determined by HPLC. The numerical results were obtained by calibration prepared from different quantities of an ointment.

Assay [2] deals with MAO-B. Kind of assay: MAO-B inhibition in rat liver nucleus free homogenate after s.c. Deprenyl or UG85 plaster. The following applies: 14C-PEA, Deprenyl 1 mg/kg s.c. As to the method: as §1, §2, §3
For assay [3], the system named is MAO-B. Description: Inhibition of platelet MAO-B activity in domestic pigs after p. os and transdermal application. The conditions noted are these: pig, per os 10 mg, 14C-PEA.
The test system of assay [4] is MAO-B. Kind of assay: MAO-B inhibition in domestic pig brain nucleus free homogenate (14C-PEA substrate). The following applies: p. os 10 mg, 96 h.

For the compound `C#CCN(C)C(C)Cc1ccccc1` (racemic) [Deprenyl, N-methyl-N-(1-phenyl-2-propyl)-2-propynylamine], the “inhibition of MAO-B activity (%) as compared to the control” value (“inhibition of MAO-B activity (%)” for short) with MAO-B [1] (1 hour) was 79.02 ± 1.58%; in the assay on MAO-B [1] (2 hours), 87.09 ± 2.05%; in the assay with MAO-B [1] (4 hours), 86.74 ± 3.00%; in the assay on MAO-B [1] (6 hours), 83.04 ± 1.46%; with MAO-B [1] (24 hours) it was 89.36 ± 2.60%; in the assay on MAO-B [1] (48 hours) it was 73.59 ± 1.77%. Besides, the “inhibition of MAO-B activity (%)” value in the assay with MAO-B [1] (72 hours) worked out at 76.99 ± 3.38%; in the assay with MAO-B [1] (96 hours) it was 69.19 ± 3.58%; with MAO-B [1] (7 days), 32.20 ± 5.45%; in the assay on MAO-B [1] (9 days), 13.56 ± 1.97%; in the assay on MAO-B [1] (11 days), 0.63 ± 0.95%; in the assay with MAO-B [1] (14 days), 0%. Besides, the “inhibition of MAO-B activity (%)” value with MAO-B [1] (time 0') is given as 0%; with MAO-B [2] (1 hour) it was 63.23 ± 11.98%; with MAO-B [2] (2 hours), 74.94 ± 1.10%; in the assay with MAO-B [2] (4 hours) it was 57.63 ± 5.23%; with MAO-B [2] (6 hours), 67.86 ± 9.22%; in the assay with MAO-B [2] (24 hours), 86.04 ± 7.81%. The “inhibition of MAO-B activity (%)” value is recorded as 64.34 ± 8.11% in the assay with MAO-B [2] (48 hours); 68.54 ± 5.25% in the assay on MAO-B [2] (72 hours); 54.75 ± 11.58% in the assay on MAO-B [2] (96 hours); 56.44 ± 7.59% in the assay on MAO-B [2] (7 days); 44.26 ± 3.45% with MAO-B [2] (9 days); 26.27 ± 15.77% with MAO-B [2] (11 days). Moreover, the “inhibition of MAO-B activity (%)” value in the assay on MAO-B [2] (14 days) came to 24.22 ± 3.13%; in the assay on MAO-B [2] (time 0'), 0%.
Turning to `C#CCN(C)[C@H](C)Cc1ccccc1` [(-)-Deprenyl], the “inhibition of MAO-B activity of the platelets (%) as compared to the control, group mean” value with MAO-B [3] (time 3 h) was 95.15%. For the same compound, the “inhibition of MAO-B activity of the platelets (%) as compared to the control, individual animal” value was 97.77% and 92.52% with MAO-B [3] (time 3 h); 86.04% and 96.51% and 95.63% with MAO-B [3] (time 6 h); 100.00% in the assay with MAO-B [3] (time 24 h); 82.67% and 70.48% and 69.93% in the assay on MAO-B [3] (time 48 h). In addition, the “inhibition of MAO-B activity of the platelets (%) as compared to the control, group mean ±S.D. (n = 3)” value turned out to be 92.73 ± 3.35% with MAO-B [3] (time 6 h), 100 ± 0.0% with MAO-B [3] (time 24 h) and 74.36 ± 4.16% in the assay with MAO-B [3] (time 48 h). Besides, in the assay on MAO-B [4], the “inhibition of MAO-activity (%) as compared to the control, brain, 14C-PEA” value is 73.22 ± 8.13%.

These data come from US5380761A, “Transdermal compositions” (Chinoin Gyogyszer- ES Vegyeszeti Termekek Gyara RT., priority 1991, dated 1995).
